The experiment addresses Human ACLY (Homo sapiens (Human), UniProt P53396). Briefly: ACLY enzyme activity test (ADP-Glo luminescence). The note with it: read-out: IC50 (μM) Human ACLY, 37° C., 30 minutes. An excerpt: • Instrument: Envision (PerkinElmer, USA) • Materials: Acl—human ACLY/acly/ATP citrate lyase protein (His tag) was purchased from Sino Biological; kinase assay kit ADP-GLO (promega #V9102).
Experimental principle: In this experiment, the ATP-dependent citrate lyase ACL catalyzes the conversion of citrate to acetyl coenzyme A, which in turn produces malonyl coenzyme A, a precursor molecule for fatty acid synthesis, and this reaction is accompanied by ATP depletion, so the change in ATP can be detected using the ADP-Glo Kinase Assay (#V9102) to indirectly reflect the inhibitory effect of the compound on the enzymatic activity of ACL. This kinase detection kit can quantitatively determine the amount of ADP catalyzed by ACLY enzyme activity. (First, the compound, the enzyme and the substrate are incubated at 37 degrees for half an hour, ADP-Glo& #V9102; reagent is added and incubated for half an hour to terminate the reaction and consume the remaining ATP; then the kinase detection reagent is added (which converts the ADP to ATP while also detecting the newly synthesized ATP using the coupled […] reaction) and incubated for half an hour. The value is read by using Envision.
Experimental method: ADP Glo luminescence method was used for determination. […] The luminous signal was detected using Envision (PerkinElmer, USA). […]
In general terms: ADP-Glo first removes unused ATP, then detects ADP through luciferase.

Chains of the proteins cited; added tags and fusions are not shown.
UniProt P53396, whole entry: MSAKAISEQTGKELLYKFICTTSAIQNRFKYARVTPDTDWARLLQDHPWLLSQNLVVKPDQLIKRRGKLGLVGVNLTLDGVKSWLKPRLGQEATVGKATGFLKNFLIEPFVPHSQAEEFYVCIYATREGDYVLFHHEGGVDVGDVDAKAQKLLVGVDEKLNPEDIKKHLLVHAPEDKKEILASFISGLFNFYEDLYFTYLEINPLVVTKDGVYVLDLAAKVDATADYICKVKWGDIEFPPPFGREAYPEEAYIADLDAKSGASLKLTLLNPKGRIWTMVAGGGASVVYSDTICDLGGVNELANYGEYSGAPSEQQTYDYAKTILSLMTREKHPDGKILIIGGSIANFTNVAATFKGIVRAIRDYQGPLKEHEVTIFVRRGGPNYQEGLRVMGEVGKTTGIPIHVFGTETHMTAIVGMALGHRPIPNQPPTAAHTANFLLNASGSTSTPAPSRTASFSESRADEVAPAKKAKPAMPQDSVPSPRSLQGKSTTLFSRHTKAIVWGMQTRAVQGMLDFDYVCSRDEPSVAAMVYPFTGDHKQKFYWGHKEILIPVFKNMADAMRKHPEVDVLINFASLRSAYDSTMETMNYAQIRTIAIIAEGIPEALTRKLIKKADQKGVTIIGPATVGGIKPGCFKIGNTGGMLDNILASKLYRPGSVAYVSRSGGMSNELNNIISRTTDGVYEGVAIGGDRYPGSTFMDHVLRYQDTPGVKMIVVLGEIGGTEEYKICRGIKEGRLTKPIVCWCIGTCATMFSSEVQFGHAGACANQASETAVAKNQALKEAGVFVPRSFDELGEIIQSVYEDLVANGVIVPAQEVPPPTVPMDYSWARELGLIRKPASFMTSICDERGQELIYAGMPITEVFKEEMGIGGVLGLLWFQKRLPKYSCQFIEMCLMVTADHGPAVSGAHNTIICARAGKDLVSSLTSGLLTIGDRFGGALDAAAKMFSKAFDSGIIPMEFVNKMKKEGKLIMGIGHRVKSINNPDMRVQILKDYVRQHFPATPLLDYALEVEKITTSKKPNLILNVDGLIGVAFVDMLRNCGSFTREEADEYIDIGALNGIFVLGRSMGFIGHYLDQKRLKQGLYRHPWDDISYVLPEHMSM

From patent publication US20250011272A1, “LONG-CHAIN COMPOUND THAT ACTS ON ACLY, PREPARATION METHOD THEREFOR AND USE THEREOF” (SHANGHAIINSTITUTE OF MATERIA MEDICA, CHINESE ACADEMY OF …, priority 2021, published 2025) come the findings set out here.

In the case of `O=C(O)C1(CCCCCC/C=C\CCCCCCC2(C(=O)OCCC34CC5CC(CC(C5)C3)C4)C=CCC2)C=CCC1` (stereo not shown), the IC50 worked out at 4.9 µM.

Broadly, the IC50 is the concentration needed to halve the response being measured.
